Among the data in patent publication US9283222B2 (priority 2006, dated 2016) are Ki values, retold here.

Protein sequences, listed by entry. Tags and fused reporters are not part of them.
UniProt P09874, whole entry: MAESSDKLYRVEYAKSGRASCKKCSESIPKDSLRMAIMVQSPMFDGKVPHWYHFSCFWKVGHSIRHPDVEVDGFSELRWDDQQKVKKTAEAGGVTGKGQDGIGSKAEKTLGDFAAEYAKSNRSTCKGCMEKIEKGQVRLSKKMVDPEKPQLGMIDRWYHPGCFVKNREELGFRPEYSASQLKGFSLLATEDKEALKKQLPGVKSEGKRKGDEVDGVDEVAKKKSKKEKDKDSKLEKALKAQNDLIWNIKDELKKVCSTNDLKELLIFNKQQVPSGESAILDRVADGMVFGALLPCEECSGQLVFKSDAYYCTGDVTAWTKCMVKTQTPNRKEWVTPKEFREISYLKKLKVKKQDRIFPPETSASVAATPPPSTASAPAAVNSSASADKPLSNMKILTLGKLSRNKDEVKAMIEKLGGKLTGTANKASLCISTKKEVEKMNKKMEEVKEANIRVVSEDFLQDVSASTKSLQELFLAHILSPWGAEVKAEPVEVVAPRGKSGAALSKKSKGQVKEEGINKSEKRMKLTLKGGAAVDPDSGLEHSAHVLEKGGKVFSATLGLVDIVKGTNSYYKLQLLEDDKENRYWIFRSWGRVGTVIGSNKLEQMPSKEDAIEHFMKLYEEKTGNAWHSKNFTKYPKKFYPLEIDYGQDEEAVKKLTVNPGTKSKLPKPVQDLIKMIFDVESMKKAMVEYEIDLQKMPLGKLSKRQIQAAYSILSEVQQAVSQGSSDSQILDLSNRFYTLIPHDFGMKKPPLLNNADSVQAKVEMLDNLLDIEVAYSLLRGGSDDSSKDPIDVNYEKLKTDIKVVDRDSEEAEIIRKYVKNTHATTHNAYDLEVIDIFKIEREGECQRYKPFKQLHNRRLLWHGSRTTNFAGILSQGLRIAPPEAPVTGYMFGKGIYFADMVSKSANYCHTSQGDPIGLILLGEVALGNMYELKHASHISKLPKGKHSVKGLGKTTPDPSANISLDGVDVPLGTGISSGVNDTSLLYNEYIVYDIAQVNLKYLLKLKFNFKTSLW

The assay has as its target Recombinant Human Poly(ADP-Ribose) Polymerase (PARP), PARP-1 (Homo sapiens (Human), UniProt P09874).

Broadly, the Ki is the equilibrium dissociation constant of an inhibitor or competing ligand from its target. As to `O=C1[C@@H]2CC[C@@H](C2)N1c1cc(Cc2n[nH]c(=O)c3c2CCCC3)ccc1F`, the inhibitory constant (Ki) came to 7 nM.

Take `O=C1CCC(=O)N1c1cc(Cc2n[nH]c(=O)c3c2CCCC3)ccc1F`: the inhibition constant (Ki) turned out to be 1.5 nM.
